Antibody variant affinities, Ab-14 heavy chain, assay 1

The measurements come from Engelhart et al. 2022 (doi:10.1038/s41597-022-01779-4) through the FLAb antibody collection.

Target peptide (SARS-CoV-2 spike, HR2 region): PDVDLGDISGINAS

The variants keep the light chain, the linker and the frameworks of Ab-14 (scFv order VH, three GGGGS repeats, VL).
VH: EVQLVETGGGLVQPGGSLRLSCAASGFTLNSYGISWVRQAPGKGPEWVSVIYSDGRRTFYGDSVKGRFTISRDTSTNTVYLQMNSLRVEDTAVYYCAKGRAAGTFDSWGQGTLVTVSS
VL: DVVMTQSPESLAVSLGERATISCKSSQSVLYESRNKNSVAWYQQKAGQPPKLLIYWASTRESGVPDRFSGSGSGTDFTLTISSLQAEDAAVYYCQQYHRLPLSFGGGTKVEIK

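The parent was found by panning a naive human phage display library on the peptide. AAYL49 was designed without a model: most single CDR substitutions and a random sample of double and triple ones. In AlphaSeq, yeast of one mating type display the scFv and yeast of the other type display the target. After mating in shaken culture at 30 °C for 16 h, diploids were selected and their barcode pairs sequenced. Read counts were normalised to the haploid input and turned into Kd by a linear fit to BCL2-family pairs of known affinity, for each replicate. There are three technical replicates.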

Substitutions are numbered in sequence along the VH above, starting at 1 (not Kabat). Scale: log10 of Kd in nM, estimated from mating counts; low values are strong binders. Where no diploid with the target was found in that replicate, the entry reads "n.d.": below detection, most likely a poor binder, though not proof of it.

{"changes": "L29Y/F59Q/A102C", "log10 Kd (nM) by replicate": "n.d. n.d. n.d.", "empty controls": "1/9 (3.42)"}
{"changes": "Y32R/D54N/R100A", "log10 Kd (nM) by replicate": "n.d. n.d. n.d.", "empty controls": "0/9"}
{"changes": "N30M/Y52F", "log10 Kd (nM) by replicate": "1.75 1.76 1.96", "empty controls": "0/9"}
{"changes": "N30A/Y52E/D106P", "log10 Kd (nM) by replicate": "n.d. 2.37 n.d.", "empty controls": "1/9 (2.20)"}
{"changes": "F27L/A102G", "log10 Kd (nM) by replicate": "3.63 3.99 4.32", "empty controls": "2/9 (4.71)"}
{"changes": "G103D/T104A", "log10 Kd (nM) by replicate": "4.32 4.08 4.15", "empty controls": "3/9 (3.86)"}
{"changes": "G26K/F27W/S31K", "log10 Kd (nM) by replicate": "n.d. 2.29 2.74", "empty controls": "2/9 (2.92)"}
{"changes": "R56L/K65C/T104F", "log10 Kd (nM) by replicate": "2.44 n.d. 3.90", "empty controls": "0/9"}
{"changes": "F27I/A101H/S107H", "log10 Kd (nM) by replicate": "n.d. n.d. n.d.", "empty controls": "1/9 (2.69)"}
{"changes": "Y52H/R56F/K65Q", "log10 Kd (nM) by replicate": "n.d. n.d. n.d.", "empty controls": "1/9 (3.17)"}
{"changes": "V50Q/G99L/T104Q", "log10 Kd (nM) by replicate": "n.d. n.d. n.d.", "empty controls": "0/9"}
{"changes": "L29M/G33F/A102T", "log10 Kd (nM) by replicate": "6.06 3.16 n.d.", "empty controls": "2/9 (3.72)"}
{"changes": "S35N/Y52G/R56D", "log10 Kd (nM) by replicate": "4.93 n.d. n.d.", "empty controls": "0/9"}
{"changes": "S35R/S53T/G99Y", "log10 Kd (nM) by replicate": "n.d. n.d. n.d.", "empty controls": "2/9 (3.49)"}
{"changes": "F27Q/T28R/I51N", "log10 Kd (nM) by replicate": "n.d. n.d. n.d.", "empty controls": "0/9"}
{"changes": "I34G/S35L/S63I", "log10 Kd (nM) by replicate": "n.d. n.d. 3.59", "empty controls": "0/9"}
{"changes": "T28S/F59A/D62C", "log10 Kd (nM) by replicate": "0.77 0.94 0.70", "empty controls": "0/9"}
{"changes": "I34C/A101Q/S107T", "log10 Kd (nM) by replicate": "2.41 2.21 2.25", "empty controls": "1/9 (3.38)"}
{"changes": "L29T/I51P/S63W", "log10 Kd (nM) by replicate": "n.d. n.d. n.d.", "empty controls": "2/9 (3.05)"}
{"changes": "N30M/G55I/F105D", "log10 Kd (nM) by replicate": "n.d. n.d. 3.98", "empty controls": "4/9 (3.82)"}

Extract of 2 entries:

changes	log10 Kd (nM) by replicate	empty controls
S35R/S53T/G99Y	n.d. n.d. n.d.	2/9 (3.49)
G103D/T104A	4.32 4.08 4.15	3/9 (3.86)

Empty control strains, which show no peptide, gave a signal in 15% of pairings with library AAYL49; the median was 4.06 and 95% of these signals were weaker than 2.83. No background was subtracted. The control count says in how many pairings with the empty strains this scFv gave a signal, with their mean in brackets. Parent in this assay: reference entry 0.65, copy in this library 4.11 (one replicate of three).